Test results as given in patent publication US20250109201A1 (AGENUS, published 2025).

Protein sequences, listed by entry. Tags and fused reporters are not part of them. Lines headed by an entry give the natural chain unless they say otherwise; changes in a name come on top. Chains listed by the source or under a name are the forms on record and can include a tag or linker. Residues count along the entry.
UniProt Q8N423, 22-458 limits assumed: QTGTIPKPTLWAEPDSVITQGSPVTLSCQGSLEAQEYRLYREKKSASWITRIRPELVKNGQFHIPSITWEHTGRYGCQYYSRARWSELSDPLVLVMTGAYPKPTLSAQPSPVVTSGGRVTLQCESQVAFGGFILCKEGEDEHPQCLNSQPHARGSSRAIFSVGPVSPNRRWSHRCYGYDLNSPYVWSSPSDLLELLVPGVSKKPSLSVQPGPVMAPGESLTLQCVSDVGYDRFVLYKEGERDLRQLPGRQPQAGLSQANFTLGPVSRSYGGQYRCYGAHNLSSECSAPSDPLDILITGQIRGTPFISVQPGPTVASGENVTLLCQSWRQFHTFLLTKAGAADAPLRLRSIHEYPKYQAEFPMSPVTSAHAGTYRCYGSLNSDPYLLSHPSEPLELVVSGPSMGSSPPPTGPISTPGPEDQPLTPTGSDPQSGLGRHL
UniProt Q8NHL6, 24-482 limits assumed: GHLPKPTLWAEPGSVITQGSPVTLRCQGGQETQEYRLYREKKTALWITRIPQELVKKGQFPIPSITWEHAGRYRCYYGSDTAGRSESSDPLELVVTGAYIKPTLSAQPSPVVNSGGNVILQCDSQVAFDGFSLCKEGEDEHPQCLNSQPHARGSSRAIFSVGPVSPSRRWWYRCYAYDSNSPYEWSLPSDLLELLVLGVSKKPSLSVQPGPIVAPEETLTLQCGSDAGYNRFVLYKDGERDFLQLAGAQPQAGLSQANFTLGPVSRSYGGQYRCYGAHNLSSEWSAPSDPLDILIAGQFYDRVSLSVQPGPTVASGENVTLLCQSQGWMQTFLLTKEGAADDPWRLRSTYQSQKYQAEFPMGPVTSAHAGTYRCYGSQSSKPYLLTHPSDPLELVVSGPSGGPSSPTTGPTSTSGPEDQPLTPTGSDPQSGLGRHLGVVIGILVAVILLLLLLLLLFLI
UniProt Q8NHL6, 24-650: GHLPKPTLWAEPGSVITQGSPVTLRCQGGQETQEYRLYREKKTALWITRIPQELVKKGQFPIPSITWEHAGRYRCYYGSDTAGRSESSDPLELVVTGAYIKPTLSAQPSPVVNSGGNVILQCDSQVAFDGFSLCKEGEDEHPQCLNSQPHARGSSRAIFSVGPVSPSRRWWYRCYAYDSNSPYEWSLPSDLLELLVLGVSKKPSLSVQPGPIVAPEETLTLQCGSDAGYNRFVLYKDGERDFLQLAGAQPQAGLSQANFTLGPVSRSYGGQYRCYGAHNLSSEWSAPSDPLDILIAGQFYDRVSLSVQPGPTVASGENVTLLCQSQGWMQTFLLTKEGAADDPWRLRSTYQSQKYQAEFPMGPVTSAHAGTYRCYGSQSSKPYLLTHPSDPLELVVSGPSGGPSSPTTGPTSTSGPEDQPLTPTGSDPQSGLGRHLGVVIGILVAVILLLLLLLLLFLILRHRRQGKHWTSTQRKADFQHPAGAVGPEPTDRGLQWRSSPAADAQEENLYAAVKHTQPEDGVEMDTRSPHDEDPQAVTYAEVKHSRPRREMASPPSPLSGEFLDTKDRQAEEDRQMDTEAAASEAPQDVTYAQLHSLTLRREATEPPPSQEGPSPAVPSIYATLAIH
UniProt Q8NHL6, 24-458: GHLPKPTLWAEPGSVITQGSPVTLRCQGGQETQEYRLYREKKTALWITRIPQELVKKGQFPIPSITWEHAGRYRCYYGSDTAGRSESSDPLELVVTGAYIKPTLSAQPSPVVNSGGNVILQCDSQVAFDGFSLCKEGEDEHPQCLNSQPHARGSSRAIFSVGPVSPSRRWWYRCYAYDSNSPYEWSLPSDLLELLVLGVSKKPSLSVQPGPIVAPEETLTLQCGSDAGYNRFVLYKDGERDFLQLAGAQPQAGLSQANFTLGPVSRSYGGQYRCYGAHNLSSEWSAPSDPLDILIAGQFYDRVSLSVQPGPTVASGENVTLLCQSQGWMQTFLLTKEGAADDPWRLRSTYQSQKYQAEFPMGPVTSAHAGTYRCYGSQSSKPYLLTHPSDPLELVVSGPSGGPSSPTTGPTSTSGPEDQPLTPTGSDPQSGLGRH
ECD-His tagged human ILT2 haplotype PE03, UniProt Q8NHL6, other isoform, or with tags, fused parts or gaps: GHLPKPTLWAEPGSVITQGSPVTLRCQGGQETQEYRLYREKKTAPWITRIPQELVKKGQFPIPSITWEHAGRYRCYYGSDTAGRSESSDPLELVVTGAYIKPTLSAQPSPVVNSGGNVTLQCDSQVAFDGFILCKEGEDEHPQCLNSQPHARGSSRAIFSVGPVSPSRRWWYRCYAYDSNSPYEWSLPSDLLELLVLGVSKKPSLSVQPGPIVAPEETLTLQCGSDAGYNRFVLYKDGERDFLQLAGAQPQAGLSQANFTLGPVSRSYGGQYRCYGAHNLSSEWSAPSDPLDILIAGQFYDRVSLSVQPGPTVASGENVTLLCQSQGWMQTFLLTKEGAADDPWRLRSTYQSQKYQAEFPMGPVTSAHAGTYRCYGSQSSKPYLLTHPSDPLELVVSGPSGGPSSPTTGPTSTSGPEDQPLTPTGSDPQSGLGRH
ECD-His tagged human ILT2 haplotype PE02, UniProt Q8NHL6, other isoform, or with tags, fused parts or gaps: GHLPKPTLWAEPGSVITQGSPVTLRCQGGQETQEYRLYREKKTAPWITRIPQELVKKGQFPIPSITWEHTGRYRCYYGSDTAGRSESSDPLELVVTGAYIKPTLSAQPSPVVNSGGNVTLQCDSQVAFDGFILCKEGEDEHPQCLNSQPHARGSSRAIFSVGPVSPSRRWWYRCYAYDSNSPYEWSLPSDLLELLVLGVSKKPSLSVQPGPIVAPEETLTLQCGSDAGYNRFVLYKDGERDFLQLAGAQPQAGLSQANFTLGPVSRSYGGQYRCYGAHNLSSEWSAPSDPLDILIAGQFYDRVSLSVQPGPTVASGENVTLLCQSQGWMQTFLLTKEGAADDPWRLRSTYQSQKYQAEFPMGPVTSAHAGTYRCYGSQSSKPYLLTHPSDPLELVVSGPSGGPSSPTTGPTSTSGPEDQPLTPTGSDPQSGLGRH
UniProt Q8N149, 24-449 limits assumed: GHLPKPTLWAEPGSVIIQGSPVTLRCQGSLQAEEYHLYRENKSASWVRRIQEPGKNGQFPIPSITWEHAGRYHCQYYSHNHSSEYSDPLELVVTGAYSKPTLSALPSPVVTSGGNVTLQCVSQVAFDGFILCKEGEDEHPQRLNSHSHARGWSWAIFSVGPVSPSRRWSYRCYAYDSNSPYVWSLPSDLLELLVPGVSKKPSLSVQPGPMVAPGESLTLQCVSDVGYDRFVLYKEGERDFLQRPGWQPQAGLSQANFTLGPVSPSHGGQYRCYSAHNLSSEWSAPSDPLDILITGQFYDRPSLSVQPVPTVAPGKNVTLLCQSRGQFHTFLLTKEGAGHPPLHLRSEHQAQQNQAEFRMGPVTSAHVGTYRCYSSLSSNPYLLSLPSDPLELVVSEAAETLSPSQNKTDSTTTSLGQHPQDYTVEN
UniProt Q6PI73, 24-447 limits assumed: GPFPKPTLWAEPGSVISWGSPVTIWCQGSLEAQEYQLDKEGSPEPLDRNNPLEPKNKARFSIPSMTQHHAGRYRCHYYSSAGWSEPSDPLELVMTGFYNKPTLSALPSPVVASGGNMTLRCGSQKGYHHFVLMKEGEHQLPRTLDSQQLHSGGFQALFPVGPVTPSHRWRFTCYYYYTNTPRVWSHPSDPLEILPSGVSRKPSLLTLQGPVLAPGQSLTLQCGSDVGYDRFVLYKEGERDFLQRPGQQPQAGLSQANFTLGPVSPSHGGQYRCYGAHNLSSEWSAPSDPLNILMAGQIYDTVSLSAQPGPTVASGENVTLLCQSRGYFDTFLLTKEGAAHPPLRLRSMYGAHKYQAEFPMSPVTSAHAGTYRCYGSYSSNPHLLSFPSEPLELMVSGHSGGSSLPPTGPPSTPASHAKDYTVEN
UniProt P59901, 24-446 limits assumed: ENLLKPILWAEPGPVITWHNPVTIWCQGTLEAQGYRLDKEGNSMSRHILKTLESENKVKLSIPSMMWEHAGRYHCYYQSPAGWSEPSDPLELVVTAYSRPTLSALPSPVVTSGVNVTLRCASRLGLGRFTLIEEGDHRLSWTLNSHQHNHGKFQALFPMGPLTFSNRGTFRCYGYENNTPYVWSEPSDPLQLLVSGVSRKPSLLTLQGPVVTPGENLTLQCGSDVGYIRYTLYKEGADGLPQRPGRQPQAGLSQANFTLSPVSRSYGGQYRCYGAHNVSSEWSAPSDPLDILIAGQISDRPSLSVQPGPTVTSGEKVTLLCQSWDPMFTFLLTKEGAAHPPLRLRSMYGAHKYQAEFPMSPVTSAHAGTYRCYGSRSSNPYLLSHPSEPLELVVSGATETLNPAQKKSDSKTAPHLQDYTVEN
UniProt A6NI73, 42-268 limits assumed: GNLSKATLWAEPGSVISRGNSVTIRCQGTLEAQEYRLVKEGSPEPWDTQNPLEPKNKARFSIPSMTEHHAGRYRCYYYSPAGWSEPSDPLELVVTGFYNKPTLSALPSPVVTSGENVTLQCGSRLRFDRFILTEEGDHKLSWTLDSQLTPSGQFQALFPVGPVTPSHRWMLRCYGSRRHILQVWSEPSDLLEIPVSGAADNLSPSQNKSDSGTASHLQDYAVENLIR
UniProt O75019, 17-461 limits assumed: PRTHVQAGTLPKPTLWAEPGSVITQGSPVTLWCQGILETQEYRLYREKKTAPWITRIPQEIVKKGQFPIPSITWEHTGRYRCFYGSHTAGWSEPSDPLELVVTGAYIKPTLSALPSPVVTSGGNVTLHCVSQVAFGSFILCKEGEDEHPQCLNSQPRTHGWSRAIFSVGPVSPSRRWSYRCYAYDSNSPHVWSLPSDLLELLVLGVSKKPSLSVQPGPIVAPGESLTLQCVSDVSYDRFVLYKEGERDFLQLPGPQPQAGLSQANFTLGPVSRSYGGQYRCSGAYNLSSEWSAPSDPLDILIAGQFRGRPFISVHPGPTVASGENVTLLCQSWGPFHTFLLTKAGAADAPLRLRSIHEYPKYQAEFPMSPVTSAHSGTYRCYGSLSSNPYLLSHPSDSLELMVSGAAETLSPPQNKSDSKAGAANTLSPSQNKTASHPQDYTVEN
UniProt O75023, 24-458 limits assumed: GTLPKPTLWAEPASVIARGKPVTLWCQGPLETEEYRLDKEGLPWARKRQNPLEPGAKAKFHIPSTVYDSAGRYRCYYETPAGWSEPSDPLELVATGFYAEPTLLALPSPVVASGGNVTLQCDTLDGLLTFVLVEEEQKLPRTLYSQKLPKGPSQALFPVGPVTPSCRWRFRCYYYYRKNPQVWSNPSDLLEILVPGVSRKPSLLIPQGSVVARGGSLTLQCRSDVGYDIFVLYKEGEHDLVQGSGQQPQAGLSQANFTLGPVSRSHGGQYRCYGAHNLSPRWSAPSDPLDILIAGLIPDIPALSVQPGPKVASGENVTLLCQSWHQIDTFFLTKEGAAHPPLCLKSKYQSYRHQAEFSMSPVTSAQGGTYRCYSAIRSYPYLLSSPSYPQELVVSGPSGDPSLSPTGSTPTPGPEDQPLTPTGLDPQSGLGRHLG

Legend:
[1] = molecular target: T1, recombinant human LILRB2/ILT4 (R&D Systems 8429-T4-050) (human, UniProt Q8N423, in part); assay: SPR
T1 construct: Bought
Procedure: (§1) Briefly, SPR experiments were performed using a Biacore T200 instrument, and the association rate (Kₐ), dissociation rate (Kd), and dissociation constant (KD) were calculated from each experiment using a 1:1 binding model with Biacore™ T200 Evaluation Software. Capture of antibodies from the Human Fab Capture kit (28958325, GE Healthcare) to the Series S CM5 sensor chip (29149603, GE Healthcare) was performed using the immobilization wizard for amine coupling from the Biacore™ control panel and following the manufacturer's recommendations included with the kit.

[2] = molecular target: T2, complement component C1q (Sigma/C1740-1 mg) (human); assay: ELISA, antibody coated in a dilution series, C1q added at 2 µg/mL, biotinylated anti-C1q and streptavidin-HRP
T2 construct: Bought protein; also called complement component 1q (C1q) protein

[3] = molecular target: T3, human ILT2 extracellular and transmembrane domains expressed on CHO cells (human, UniProt Q8NHL6, in part); assay: flow cytometry, blocking of PE HLA-A*02:01 pentamer on CHO cells with high human ILT2
T3 construct: domain: extracellular and transmembrane domains; which one is told under assay; also called CHO cells expressing human ILT2 (relatively low or relatively high level); CHO-ILT2 cells

[4] = molecular target: T3, human ILT2 extracellular and …; assay: flow cytometry, CHO cells with low human ILT2
Procedure: (§2) CHO cells expressing relatively high and low levels of human ILT2 were seeded in a 96-well U-bottom tissue culture plate at a density of 2×10⁵ cells per well in 50 μL of PBS supplemented with 0.5% BSA, 1 mM EDTA and 0.05% sodium azide (FACS Buffer). The cells were incubated for 30 minutes at 4° C. with 50 μL of a series dilution of anti-ILT2 antibodies or isotype control (VRC01 IgG₄) at concentrations from 10 μg/mL to 0.2 ng/mL in FACS Buffer.
(§3) For antibody staining, the cells were washed three times with cold FACS Buffer and resuspended in FACS Buffer containing a FITC-conjugated mouse anti-human IgG₄ antibody (Southern Biotech/9190-02) at a final concentration of […]. After a 30-minute incubation in the dark at 4° C., the cells were washed three times and analyzed as above.

[5] = molecular target: T3, human ILT2 extracellular and …; assay: flow cytometry, blocking of PE HLA-B*07:02 pentamer on CHO cells with high human ILT2
[6] = molecular target: T4, recombinant human LILRB3/ILT5 (R&D Systems 9159-T5-050) (human, UniProt O75022, in part); assay: SPR
T4 construct: Bought
From the text: (§4) Irrelevant antibody VRC01 IgG1 N297A was used as a negative isotype control.

[7] = molecular target: T5, recombinant human LILRA2/ILT1 (R&D Systems 9040-T4-050) (human, UniProt Q8N149); assay: SPR
T5 construct: Bought
From the text: as §4

[8] = molecular target: T6, recombinant human LILRB4/ILT3 (Sino Biological 16742-H08H) (human, UniProt Q8NHJ6, in part); assay: SPR
T6 construct: Bought
From the text: as §4

[9] = molecular target: T7, recombinant human LILRA6/ILT8 (Sino Biological 29813-H08H-50) (human, UniProt Q6PI73); assay: SPR
T7 construct: Bought
From the text: as §4

[10] = molecular target: T8, recombinant human LILRA4/ILT7 (Sino Biological 16058-H08H-50) (human, UniProt P59901, in part); assay: SPR
T8 construct: Bought
From the text: as §4

[11] = molecular target: T9, recombinant human LILRA5/ILT11 (Sino Biological 16059-H08H-100) (human, UniProt A6NI73, in part); assay: SPR
T9 construct: Bought
From the text: as §4

[12] = molecular target: T10, recombinant human LILRA1/LIR-6 (Sino Biological 17220-H08H-100) (human, UniProt O75019); assay: SPR
T10 construct: Bought
From the text: as §4

[13] = molecular target: T11, recombinant human LILRB5/LIR-8 (Sino Biological 17221-H08H-100) (human, UniProt O75023, in part); assay: SPR
T11 construct: Bought
From the text: as §4

[14] = molecular target: full-length ILT2 expressed on Jurkat cells (human, UniProt Q8NHL6); assay: cell-based or functional assay
[15] = molecular target: T3, human ILT2 extracellular and …; assay: flow cytometry, CHO cells with high human ILT2
Procedure: as §2, §3

[16] = molecular target: T12, ECD-His tagged cynomolgus monkey ILT2 orthologue protein, variant 3 (cynomolgus monkey); assay: SPR, ECD-His tagged receptor
T12 construct: also called Cyno ILT2 variant 3; not shown: His tag
Procedure: as §1

[17] = molecular target: T3, human ILT2 extracellular and …; assay: flow cytometry competition assay, CHO cells expressing human ILT2, preincubated with unconjugated BA252; competitor BA252-APC at 0.3 µg/mL
[18] = molecular target: T3, human ILT2 extracellular and …; assay: flow cytometry, blocking of PE HLA-C*07:02 pentamer on CHO cells with high human ILT2
[19] = molecular target: T13, ECD-His tagged human ILT2 haplotype PE01 (human, UniProt Q8NHL6, in part); assay: SPR, ILT2 ECD-His
T13 construct: also called Human ILT2 PE01 ECD; LILRB1/ILT2 PE01; not shown: His tag
Procedure: as §1

[20] = molecular target: T14, ECD-His tagged human ILT2 haplotype PE03 (human, UniProt Q8NHL6, in part); assay: SPR, ILT2 ECD-His
T14 construct: also called Human ILT2 PE03 ECD (Sino biological, 16014-H08H); not shown: His tag
Procedure: as §1

[21] = molecular target: T15, ECD-His tagged human ILT2 haplotype PE02 (human, UniProt Q8NHL6, in part); assay: SPR, ILT2 ECD-His
T15 construct: also called Human ILT2 PE02 ECD; not shown: His tag
Procedure: as §1

binding result [1]: no binding
binding result [2]: no binding (tested: 300 µg/ml)
IC50 [3]: 0.11 µg/mL
EC50 [4]: 0.032 µg/mL
IC50 [5]: 0.136 µg/mL
binding result [6]: no binding
binding result [7]: no binding
binding result [8]: no binding
binding result [9]: no binding
binding result [10]: no binding
binding result [11]: no binding
binding result [12]: no binding
binding result [13]: no binding
FcγRIIIa-NFAT luciferase signaling, Average AUC normalized to HP-F1 [14]: 159
FcγRIIIa-NFAT luciferase signaling, EC50 [14]: 15.3 µg/mL
EC50 [15]: 0.165 µg/mL
Kd [16]: 1900 nM
IC50 (read off the curve) [17]: ~0.2 µg/mL
IC50 [18]: 0.158 µg/mL
Kd [19]: 0.14 nM
koff [19]: 7.1e-05 s⁻¹
kon [19]: 520000 M⁻¹ s⁻¹
Kd [20]: 0.59 nM
koff [20]: 0.00025 s⁻¹
kon [20]: 420000 M⁻¹ s⁻¹
Kd [21]: 0.44 nM
koff [21]: 0.0002 s⁻¹
kon [21]: 460000 M⁻¹ s⁻¹
B1: BA252 (antibody, human IgG4 S228P, kappa)
heavy: QVQLVQSGAEVKKPGASVKVSCKASGYTFNRYYMHWVRQAPGQGLEWMGWINPYTGGTNYAQKFQGRVTMTRDTSISTAYMELSRLRSDDTAVYYCASKQPSSDYWGQGTLVTVSSASTKGPSVFPLAPCSRSTSESTAALGCLVKDYFPEPVTVSWNSGALTSGVHTFPAVLQSSGLYSLSSVVTVPSSSLGTKTYTCNVDHKPSNTKVDKRVESKYGPPCPPCPAPEFLGGPSVFLFPPKPKDTLMISRTPEVTCVVVDVSQEDPEVQFNWYVDGVEVHNAKTKPREEQFNSTYRVVSVLTVLHQDWLNGKEYKCKVSNKGLPSSIEKTISKAKGQPREPQVYTLPPSQEEMTKNQVSLTCLVKGFYPSDIAVEWESNGQPENNYKTTPPVLDSDGSFFLYSRLTVDKSRWQEGNVFSCSVMHEALHNHYTQKSLSLSLG
light: DIVMTQSPLSLPVTPGEPASISCRSSQSLLHSNTYNYLDWYLQKPGQSPQLLIYLGSNRASGVPDRFSGSGSGTDFTLKISRVEAEDVGVYYCLQASQAPWTFGQGTKVEIKRTVAAPSVFIFPPSDEQLKSGTASVVCLLNNFYPREAKVQWKVDNALQSGNSQESVTEQDSKDSTYSLSSTLTLSKADYEKHKVYACEVTHQGLSSPVTKSFNRGEC
